{
  "sequences": {"note": "Amino acid sequences for entries named in this document (tags omitted). A change or cut given only in a name is not applied to a line headed by its entry.", "UniProt Q9Y5N1": "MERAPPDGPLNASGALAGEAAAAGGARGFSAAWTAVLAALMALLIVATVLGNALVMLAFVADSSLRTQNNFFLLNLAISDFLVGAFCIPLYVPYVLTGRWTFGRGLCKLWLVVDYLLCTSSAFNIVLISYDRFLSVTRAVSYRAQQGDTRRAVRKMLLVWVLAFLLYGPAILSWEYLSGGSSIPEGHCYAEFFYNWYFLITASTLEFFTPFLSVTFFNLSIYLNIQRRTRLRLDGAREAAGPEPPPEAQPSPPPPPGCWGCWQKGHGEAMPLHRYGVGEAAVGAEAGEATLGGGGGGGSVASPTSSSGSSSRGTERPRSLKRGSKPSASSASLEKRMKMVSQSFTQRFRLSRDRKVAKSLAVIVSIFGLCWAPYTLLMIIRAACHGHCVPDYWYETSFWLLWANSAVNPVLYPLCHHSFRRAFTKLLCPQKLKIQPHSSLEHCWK"},
  "source": "ChEMBL document CHEMBL1154085",
  "about": "“Diamine-based human histamine H3 receptor antagonists: (4-aminobutyn-1-yl)benzylamines” (Eur J Med Chem, 2009)",
  "target": "Histamine H3 receptor (Homo sapiens, UniProt Q9Y5N1)",
  "experiment": "Displacement of [3H]N-alpha-methylhistamine from human histamine H3 receptor expressed in SK-N-MC cells",
  "format": "cell-based",
  "outline": "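Membranes prepared from SK-N-MC cells expressing human H3 receptor, homogenized in 50 mM Tris/5 mM EDTA, pH 7.4. Incubated with 0.8 nM [3H]-N-alpha-methylhistamine ± compound, 60 min, 25 °C. Filtration over polyethylenimine-treated glass fiber filters with four ice-cold washes. Nonspecific binding defined with 10 µM histamine.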",
  "data": [
    {"molecule": "C(#Cc1ccccc1)CCN1CCCCC1", "values": [
      {"measurement": "Ki", "result": 56.2, "unit": "nM"}
    ]}
  ]
}
